Measurements taken from PubChem BioAssay AID652104 (National Center for Advancing Translational Sciences (NCATS), 2013).
Only a part is listed here, and it is no random draw. Results filed as inconclusive are left out. Active and inactive are the calls of the source. The call rests on the fitted dose curve; in most records, active means well fitted activation curve with a large enough effect; inconclusive means small, poorly fitted or top-dose-only effect, or another doubt; inactive means no such curve, though single readings can be large or run the other way.

Assay: qHTS of TDP-43 Inhibitors; further: nearly all actives have a fitted effect of over 50% in size; on growth rescue (activation): % of control where 0% means no effect
Settings: TDP-43 expressing yeast growth rescue, BacTiter-Glo, 24 h; series mostly up to 46.1 µM; growth rescue (activation): at the top concentration
Potency means the concentration at half of the fitted maximal effect.

SMILES | growth rescue (activation) | Potency
CC1(CBr)Cn2c(nc3ccccc3c2=O)S1 (stereo unspecified) | inactive: 4.83% | 
CCC1=CC2Cc3nc4ccc(Cl)cc4c(N)c3C(C1)C2 (stereo unspecified) | inactive: 7.04% | 
O=P1(Nc2ccccn2)COc2ccccc2OC1 | inactive: 1.51% | 
CCOP(=O)(NC(=NC(C)c1ccccc1)NC(C)c1ccccc1)OCC (stereo unspecified) | inactive: -4.3% | 
CN(CCCl)Cc1cc(Cl)c(NC2=NCCN2)c(Cl)c1 | inactive: -16.1% | 
CCOP(=O)(Nc1ccc(C)cn1)OCC | inactive: -10.5% | 
Clc1n[nH]nc1-c1nn[nH][15n]1 | inactive: -17.2% | 
O=P1(N(CCCl)CCCl)NCCC(C(F)(F)F)O1 (stereo unspecified) | inactive: 22.9% | 
CC(C)(C)C(=O)NC(Sc1ncccn1)C(Cl)(Cl)Cl (stereo unspecified) | inactive: 4.28% | 
O=C(OC1CN2CCC1CC2)c1cccc([N+](=O)[O-])c1 (stereo unspecified) | inactive: -16.6% | 
CCOC(=O)c1ccc(NC(=O)C(C)(CCl)SC)cc1 (stereo unspecified) | inactive: 9.48% | 
CCC(C)N(CC(C)C)C(=S)SC(NC(C)=O)C(Cl)(Cl)Cl (stereo unspecified) | inactive: 1.21% | 
COP1(=S)c2c(C)nn(CCC#N)c2N=C(c2ccc(F)cc2)N1C (stereo unspecified) | inactive: -7.37% | 
COC(=O)C1(C)COP(=O)(N2CCCC2)OC1 (stereo unspecified) | inactive: 0% | 
O=C(O)C(=O)c1ccc(N(CCCl)CCCl)cc1 | inactive: 4.55% | 
O=C(COc1ccccc1)OC1CN2CCC1CC2 (stereo unspecified) | inactive: -7.15% | 
CCOC(=O)Nc1cccc([As](=O)(O)O)c1 | inactive: -10% | 
Cc1cc(SC(NC=O)C(Cl)(Cl)Cl)ncn1 (stereo unspecified) | inactive: -2.59% | 
O=P(Nc1ccccn1)(c1cccc2ccccc12)c1cccc2ccccc12 | inactive: -15% | 
O=[N+]([O-])c1ccc(Nc2ccc(Oc3ccc([N+](=O)[O-])cc3[N+](=O)[O-])cc2)c([N+](=O)[O-])c1 | inactive: 16.2% | 
O=C(O)C(O)c1ccc(N(CCCl)CCCl)cc1 (stereo unspecified) | inactive: 27.9% | 
CCOC(=O)Nc1ccc([As](=O)(O)O)c(O)c1 | inactive: -12.6% | 
CC1CCNP(=O)(N(CCCl)CCCl)O1 (stereo unspecified) | inactive: -18.7% | 

SMILES | growth rescue (activation) | Potency
COP(=O)(OC)N1CC1c1ccccc1 (stereo unspecified) | inactive: 4.31% | 
CCCCOc1ccc(C(=O)NCC2(N3CCCCC3)CCCCC2)cc1OC | inactive: 7.17% | 
ClCCSc1nnc(-c2cccnc2)o1 | inactive: 19.4% | 
CC(C)c1ccc(OP(=O)(Nc2ccccn2)Oc2ccccc2F)cc1 (stereo unspecified) | inactive: 21.8% | 
COC(=O)C1(C)COP(=O)(N2CCCCCC2)OC1 (stereo unspecified) | inactive: 22.1% | 
O=C(OC1CN2CCC1CC2)c1cccc2[nH]cnc12 (stereo unspecified) | inactive: 10.8% | 
CCN(CC)C(=S)SC(NC=O)C(Cl)(Cl)Cl (stereo unspecified) | inactive: 13.2% | 
CC(C)NC(=O)NP(=O)(Oc1ccccc1)Oc1ccccc1 | inactive: -32.6% | 
O=[N+]([O-])c1cc([N+](=O)[O-])c(-c2ccn[nH]2)s1 |  | active: 15.8 µM
C[As](=O)(O)c1cccc(C(=O)O)c1 | inactive: -13.4% | 
O=[As](O)(c1ccc(O)cc1)c1ccccc1O | inactive: -19.2% | 
COc1cc(C(=O)NCC2(N3CCOCC3)CCCCC2)ccc1OCC(C)C | inactive: 17.5% | 
O=[N+]([O-])c1ccc(-c2cc([N+](=O)[O-])c(O)c([N+](=O)[O-])c2)cc1 | inactive: 1.16% | 
Cc1ccc(OP(=O)(Nc2ccc([N+](=O)[O-])cn2)Oc2ccc(C)cc2)cc1 | inactive: 8.01% | 
Cc1ccc2nc3c(c(C)c2c1)CC(C(Cl)Cl)S3 (stereo unspecified) | inactive: -6.52% | 
O=[N+]([O-])c1cc(Oc2ccc([N+](=O)[O-])cc2C(F)(F)F)cc([N+](=O)[O-])c1 |  | active: 12.6 µM
COc1ccc(N/C(=N/P(=O)(N2CCOCC2)N2CCOCC2)N2CCOCC2)cc1 | inactive: 4.58% | 
O=C(OC1CN2CCC1CC2)C12CC3CC(CC(C3)C1)C2 (stereo unspecified) | inactive: -15.4% | 
Cc1cc(=O)[nH]c(N[N+](=O)[O-])n1 | inactive: -3.99% [at 0.397 µM] | 
O=P1(N(CCCl)CCCl)OCCCN1CCCl (stereo unspecified) | inactive: -14.9% | 
O=P1(N(CCCl)CCCl)Nc2ccccc2N1 | inactive: -9.76% | 
COc1ccc2nc(NP(=O)(c3ccccc3)c3ccccc3)sc2c1 | inactive: -11.5% | 
COc1cc(I)ccc1[As](=O)(O)O | inactive: -3.23% | 
